Laboratory results reported in US6399782B1, “Benzimidazole inhibitors of fructose 1,6-bisphosphatase” (Metabasis Therapeutics, Inc., priority 1997, dated 2002).

Assays:
rat hepatocytes = assay: Inhibition of gluconeogenesis in rat hepatocytes; assay type: cell-based; details: Hepatocyte; glucose production from lactate/pyruvate, isolated rat hepatocytes, 1 hour
Experimental: Hepatocytes were prepared from overnight fasted Sprague-Dawley rats (250-300 g) according to the procedure of Berry and Friend (Berry, M. N., Friend, D. S., 1969, J. Cell. Biol. 43, 506-520) as modified by Groen (Groen, A. K., Sips, H. J., Vervoorn, R. C., Tager, J. M., 1982, Eur. J. Biochem. 122, 87-93). Hepatocytes (75 mg wet weight/mL) were incubated in 1 ml Krebs-bicarbonate buffer containing 10 mM Lactate, 1 mM pyruvate, 1 mg/mL BSA, and test compound concentrations from 1 to 500 μM. Incubations were carried out in a 95% oxygen, 5% carbon dioxide atmosphere in closed, 50-mL Falcon tubes submerged in a rapidly shaking water bath (37° C.). After 1 hour, an aliquot (0.25 mL) was removed, transferred to an Eppendorf tube and centrifuged. 50 μL of supernatant was then assayed for glucose content using a Sigma Glucose Oxidase kit as per the manufacturer's instructions.

mouse liver FBPase = target: T1, mouse liver FBPase (Mus musculus, UniProt Q9QXD6); assay: Inhibition of mouse liver FBPase; assay type: biochemical; details: partially purified mouse liver fraction
T1 construct: This partially purified fraction was used for enzyme assays; from tissue; host or cells: mouse liver, 45-75% ammonium sulfate fraction
T1 sequence (Q9QXD6 2-338 limits assumed): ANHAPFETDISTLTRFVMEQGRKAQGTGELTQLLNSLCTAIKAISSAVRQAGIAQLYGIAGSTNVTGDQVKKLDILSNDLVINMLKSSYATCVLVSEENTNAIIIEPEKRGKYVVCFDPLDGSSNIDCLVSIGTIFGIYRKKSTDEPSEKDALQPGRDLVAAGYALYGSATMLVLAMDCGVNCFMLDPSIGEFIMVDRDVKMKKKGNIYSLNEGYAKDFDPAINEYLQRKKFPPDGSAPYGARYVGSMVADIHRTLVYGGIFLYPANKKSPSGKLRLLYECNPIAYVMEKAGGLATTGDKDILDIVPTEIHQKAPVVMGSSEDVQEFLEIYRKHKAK
Experimental: Enzymatic activity was measured spectrophotometrically in reactions that coupled the formation of product (fructose 6-phosphate) to the reduction of dimethylthiazoldiphenyltetrazolium bromide (MTT) via NADP and phenazine methosulfate (PMS), using phosphoglucose isomerase and glucose 6-phosphate dehydrogenase as the coupling enzymes. Reaction mixtures (200 μl) were made up in 96-well microtitre plates, and consisted of 50 mM Tris-HCl, pH 7.4, 100 mM KCl, 5 mM EGTA, 2 mM MgCl2, 0.2 mM NADP, 1 mg/ml BSA, 1 mM MTT, 0.6 mM PMS, 1 unit/mL phosphoglucose isomerase, 2 units/mL glucose 6-phosphate dehydrogenase, and 0.150 mM substrate (fructose 1,6-bisphosphate). Inhibitor concentrations were varied from 0.01 μM to 10 μM.
Mouse liver FBPase was obtained by homogenizing freshly isolated mouse liver in 100 mM Tris-HCl buffer, pH 7.4, containing 1 mM EGTA, and 10% glycerol. […] This fraction was redissolved in the homogenization buffer and desalted on a PD-10 gel filtration column (Biorad) eluted with same. This partially purified fraction was used for enzyme assays. Both rat liver and mouse liver FBPase were assayed as described for human liver FBPase.

CC(C)Cn1c(-c2ccc(P(=O)(O)O)o2)nc2c(N)c(F)cc(Cl)c21 [Compound 12.54, 4-Amino-5-fluoro-7-chloro-1-isobutyl-2-(2-phosphono-5-furanyl)benzimidazole]
IC50 (rat hepatocytes): 3600 nM

CCc1cc(F)c(N)c2nc(-c3ccc(P(=O)(O)O)o3)n(CC(C)C)c12 [Compound 12.64]
IC50 (mouse liver FBPase): 1070 nM
